Assay results: patent US5698222A, “Calcium supplement” (Abbott Laboratories, priority 1995, dated 1997)

What was measured:
[1] = rat, in vivo, 30240 min; cited from earlier work

calcium glycerophosphate [CaGP]
solubility at time of manufacture (pH 3.5): soluble
solubility at 1 month (pH 5): insoluble
solubility at time of manufacture (pH 5): soluble
relative calcium bioavailability [1]: 106%

Where two headings read alike, the source gives them in different places.
